Our source for the MIC values is patent US9737075B2, “Synergistic benzoxaborole-containing anti-fungicidal composition” (The Penn State Research Foundation, priority 2015, dated 2017).

One experiment relates to Stachybotrys chartarum. Description: Broth microdilution MIC of individual antifungals. The note with it: 72 h, read-out: Independent MIC. The experiment is classed as cell-based. Background: Dilution methods test growth across graded concentrations, often in twofold steps.
The test system of the next experiment is Aspergillus fumigatus. Put plainly: Broth microdilution MIC of individual antifungals. The experiment is classed as cell-based. The note with it: 72 h, read-out: Independent MIC.
Another experiment concerns Mucor sp. Put plainly: Broth microdilution MIC of individual antifungals. Particulars: 72 h, read-out: Independent MIC. The format is cell-based.
Another experiment deals with Aspergillus niger. Put plainly: Broth microdilution MIC of individual antifungals. The note with it: 72 h, read-out: Independent MIC.
The subject of another experiment is Botrytis cinerea B17. Description: Broth microdilution MIC of individual antifungals. The format is cell-based. The note with it: B17, 72 h, read-out: Independent MIC.
Experiment [1] concerns Colletotrichum orbiculare. Description: Broth microdilution MIC of individual antifungals. The experiment is classed as cell-based. Particulars: 72 h, read-out: Independent MIC.
Another experiment deals with Fusarium oxysporum ST33. Description: Broth microdilution MIC of individual antifungals. The experiment is classed as cell-based. The note with it: ST33, 72 h, read-out: Independent MIC.
In a further experiment the test system is Pythium aphanodermatum. Put plainly: Broth microdilution MIC of individual antifungals. The note with it: 72 h, read-out: Independent MIC.
The next experiment relates to Candida albicans. Put plainly: Broth microdilution MIC of individual antifungals. The format is cell-based. Particulars: 72 h, read-out: Independent MIC.
Another experiment deals with Sclerotinia homoeocarpa. Description: Broth microdilution MIC of individual antifungals. Particulars: Clarireedia homoeocarpa, 72 h, read-out: Independent MIC.
The test system of experiment [2] is two dozen different fungal organisms. Put plainly: Broth microdilution MIC, summary over the organisms examined. The note with it: read-out: MIC values. The format is cell-based.
The next experiment deals with Rhizopus sp. Put plainly: Broth microdilution MIC of individual antifungals. Particulars: 72 h, read-out: Independent MIC.
In the next experiment the test system is Aureobasidium pullulans. Description: Broth microdilution MIC of individual antifungals. The experiment is classed as cell-based. Particulars: 72 h, read-out: Independent MIC.
The next experiment concerns Phytophthora pini. Description: Broth microdilution MIC of individual antifungals. The note with it: 72 h, read-out: Independent MIC. The experiment is classed as cell-based.
In experiment [3] the test system is Fusarium oxysporum f. sp. lycopersici. Description: Broth microdilution MIC of individual antifungals. The experiment is classed as cell-based. Particulars: 72 h, read-out: Independent MIC.
The test system of experiment [4] is Fusarium solani f. sp. pisi (MP VI). Description: Broth microdilution MIC of individual antifungals. The note with it: 72 h, read-out: Independent MIC.
For another experiment, the system named is Aspergillus flavus. Put plainly: Broth microdilution MIC of individual antifungals. Particulars: 72 h, read-out: Independent MIC.
The next experiment has as its system Magnaporthe grisea. Put plainly: microbe, parasite or virus in culture. The format is cell-based. Particulars: Pyricularia oryzae, 72 h, read-out: Independent MIC.
For another experiment, the system named is Penicillium chrysogenum. Put plainly: Broth microdilution MIC of individual antifungals. The format is cell-based. The note with it: 72 h, read-out: Independent MIC.
Another experiment has as its system Fusarium verticillioides. Description: Broth microdilution MIC of individual antifungals. The format is cell-based. Particulars: 72 h, read-out: Independent MIC.
For experiment [5], the system named is Mycosphaerella zeae-maydis. Put plainly: Broth microdilution MIC of individual antifungals. Particulars: Didymella maydis, 72 h, read-out: Independent MIC.
Another experiment has as its system Alternaria solani. Put plainly: Broth microdilution MIC of individual antifungals. Particulars: 72 h, read-out: Independent MIC.
A further experiment has as its system Rhizoctonia solani. Description: Broth microdilution MIC of individual antifungals. The experiment is classed as cell-based. The note with it: 72 h, read-out: Independent MIC.
A further experiment concerns Botrytis cinerea 10-1728. Put plainly: Broth microdilution MIC of individual antifungals. Particulars: Botrytis cinerea, 101728, 72 h, read-out: Independent MIC. The experiment is classed as cell-based.

SMILES strings stand for the structures. Converted amounts (≈) assume the structure as drawn.

For `OB1OCc2ccccc21` [BO, 2-(hydroxymethyl)benzene boronic acid hemiester], the MIC in the experiment with Stachybotrys chartarum was 0.5 to 2 µg/mL; in the experiment with Aspergillus fumigatus it was 0.5 to 1 µg/mL; in the experiment on Mucor sp., 0.5 to 1 µg/mL; with Aspergillus niger it was 2 to 2.5 µg/mL; in the experiment with Botrytis cinerea B17, 1 to 4 µg/mL; in experiment [1], 1.56 µg/mL. The MIC in the experiment on Fusarium oxysporum ST33 was 1 to 2 µg/mL; with Pythium aphanodermatum, 4 to 8 µg/mL; with Candida albicans, 1 µg/mL; in the experiment with Sclerotinia homoeocarpa it was 2 to 8 µg/mL; in experiment [2] it was at most 4 µg/mL; with Rhizopus sp., 2 to 8 µg/mL. Moreover, the MIC in the experiment on Aureobasidium pullulans is 1 to 2 µg/mL; in the experiment on Phytophthora pini it was 0.25 µg/mL; in experiment [3], 1 to 2 µg/mL; in [4], 2 to 6 µg/mL; in the experiment with Aspergillus flavus it was 2 to 5 µg/mL; in the experiment with Magnaporthe grisea it was 1.56 to 2 µg/mL (≈ 11.6 to 14.9 µM). For the same compound, the MIC was 3.12 µg/mL in the experiment with Penicillium chrysogenum; 1 to 4 µg/mL in the experiment on Fusarium verticillioides; 2 to 8 µg/mL in [5]; 2 to 4 µg/mL in the experiment on Alternaria solani; 6.25 to 12.5 µg/mL in the experiment on Rhizoctonia solani; 1 to 2.5 µg/mL with Botrytis cinerea 10-1728.
